Data on two molecules can be found in US7097988B1 (priority 1993, dated 2006).

Sequences of proteins named here, by UniProt entry; tags and fusion partners are left off. A change or cut given only in a name is not applied to a line headed by its entry.
UniProt P35372, whole entry, looked up: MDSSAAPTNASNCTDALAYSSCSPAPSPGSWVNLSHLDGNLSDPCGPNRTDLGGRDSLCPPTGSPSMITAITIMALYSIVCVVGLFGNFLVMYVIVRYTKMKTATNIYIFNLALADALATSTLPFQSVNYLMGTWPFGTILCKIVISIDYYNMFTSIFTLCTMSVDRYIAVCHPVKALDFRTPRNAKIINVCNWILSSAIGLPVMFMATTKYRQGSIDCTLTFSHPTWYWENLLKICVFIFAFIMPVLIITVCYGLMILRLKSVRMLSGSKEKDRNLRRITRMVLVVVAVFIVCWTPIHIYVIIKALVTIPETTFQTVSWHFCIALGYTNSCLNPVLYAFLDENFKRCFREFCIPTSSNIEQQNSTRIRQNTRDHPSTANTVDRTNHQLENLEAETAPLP
UniProt P32300, whole entry, looked up: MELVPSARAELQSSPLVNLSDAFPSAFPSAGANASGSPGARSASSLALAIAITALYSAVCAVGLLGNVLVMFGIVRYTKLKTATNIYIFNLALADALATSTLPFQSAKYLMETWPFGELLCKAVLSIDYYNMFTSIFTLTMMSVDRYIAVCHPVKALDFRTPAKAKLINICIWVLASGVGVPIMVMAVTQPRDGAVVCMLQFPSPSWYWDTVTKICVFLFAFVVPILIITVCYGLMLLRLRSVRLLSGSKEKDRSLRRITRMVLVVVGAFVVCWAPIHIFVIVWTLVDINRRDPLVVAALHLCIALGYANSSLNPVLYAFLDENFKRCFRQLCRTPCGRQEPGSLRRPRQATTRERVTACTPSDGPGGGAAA
UniProt P35370: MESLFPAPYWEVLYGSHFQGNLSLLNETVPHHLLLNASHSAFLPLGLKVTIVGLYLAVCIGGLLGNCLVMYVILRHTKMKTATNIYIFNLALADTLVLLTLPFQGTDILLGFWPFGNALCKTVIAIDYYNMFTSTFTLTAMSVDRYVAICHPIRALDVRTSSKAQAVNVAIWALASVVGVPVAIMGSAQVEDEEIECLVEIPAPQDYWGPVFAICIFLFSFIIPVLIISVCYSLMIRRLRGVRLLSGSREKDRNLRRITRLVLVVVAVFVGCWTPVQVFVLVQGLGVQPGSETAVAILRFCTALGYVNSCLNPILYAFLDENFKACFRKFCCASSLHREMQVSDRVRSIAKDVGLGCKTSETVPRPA

The target of one experiment is human μ opioid receptor (Homo sapiens, UniProt P35372). Conditions: saturation binding.
The next experiment concerns the target mouse δ-opioid receptor (Mus musculus, UniProt P32300). Conditions: cited from earlier work.
In experiment [1] the target is T1, novel member of the opioid receptor gene family (SEQ ID NO: 17) (Rattus norvegicus, UniProt P35370). The experiment is described as follows: [3H]diprenorphine binding, COS-7 membranes transfected with the putative (novel) opioid receptor. Conditions: one nanomolar [3H]diprenorphine.
The target of experiment [2] is T1, novel member of the opioid receptor gene family (SEQ ID NO: 17). Conditions: one micromolar agonist.

Consider `CO[C@]12CC[C@@]3(C[C@@H]1C(C)(C)O)[C@H]1Cc4ccc(O)c5c4[C@@]3(CCN1CC1CC1)[C@H]2O5`, for which, on human μ opioid receptor, the Bmax is 549±26 fmol/mg of membrane protein and the Hill coefficients was 0.97±0.01. Moreover, the Kd on mouse δ-opioid receptor is 3.8 nM. Besides, the “specific binding (in words)” value in experiment [1] was “did not detect any specific binding”.
Take `CN(C(=O)Cc1ccc(Cl)c(Cl)c1)[C@H]1CC[C@@]2(CCCO2)C[C@@H]1N1CCCC1`: the “induction of potassium conductance (in words)” value in experiment [2] is listed as “no potassium conductance was induced”.

In general, Kd refers to the constant that tells how readily two partners part at equilibrium.
